Reference: ChEMBL document CHEMBL4229324, “Synthesis and antitumor activities of 1,2,3-triazines and their benzo- and heterofused derivatives” (Eur J Med Chem, 2017)

Organism: Homo sapiens
Assay: Potency index, ratio of GI50 for vatalanib to GI50 for test compound for antiproliferative activity against HMVEC incubated for 4 days by MTT assay
Assay type: functional

## COc1cc2c(Nc3ccc(F)c(Cl)c3)nnnc2cc1OCCCCl
  RatioGI50: 4 to 10
